Measurements as given in paper PMC9243104 (Nature Communications, 2022).

By UniProt entry, the sequences of proteins in these tests, tags left out.
UniProt P27694, whole entry, chain 1 of 3: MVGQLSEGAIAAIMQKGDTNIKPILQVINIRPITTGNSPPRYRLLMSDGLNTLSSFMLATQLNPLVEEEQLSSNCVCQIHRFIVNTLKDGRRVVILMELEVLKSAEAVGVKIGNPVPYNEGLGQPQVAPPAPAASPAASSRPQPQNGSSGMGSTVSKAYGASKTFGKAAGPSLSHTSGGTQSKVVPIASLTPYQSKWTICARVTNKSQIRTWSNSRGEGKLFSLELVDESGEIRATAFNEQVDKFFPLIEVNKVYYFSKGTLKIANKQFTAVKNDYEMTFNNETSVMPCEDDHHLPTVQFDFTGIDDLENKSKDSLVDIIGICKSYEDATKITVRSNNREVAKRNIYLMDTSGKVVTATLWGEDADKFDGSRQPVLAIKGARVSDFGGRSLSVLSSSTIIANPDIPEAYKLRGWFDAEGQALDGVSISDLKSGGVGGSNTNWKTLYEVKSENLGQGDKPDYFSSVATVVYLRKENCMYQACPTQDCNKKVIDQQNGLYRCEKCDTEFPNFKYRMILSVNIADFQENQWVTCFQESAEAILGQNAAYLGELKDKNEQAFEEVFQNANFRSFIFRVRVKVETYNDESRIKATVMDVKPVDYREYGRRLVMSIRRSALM
Human heterotrimeric replication protein A (RPA1, RPA2, RPA3), UniProt P15927, whole entry, chain 2 of 3: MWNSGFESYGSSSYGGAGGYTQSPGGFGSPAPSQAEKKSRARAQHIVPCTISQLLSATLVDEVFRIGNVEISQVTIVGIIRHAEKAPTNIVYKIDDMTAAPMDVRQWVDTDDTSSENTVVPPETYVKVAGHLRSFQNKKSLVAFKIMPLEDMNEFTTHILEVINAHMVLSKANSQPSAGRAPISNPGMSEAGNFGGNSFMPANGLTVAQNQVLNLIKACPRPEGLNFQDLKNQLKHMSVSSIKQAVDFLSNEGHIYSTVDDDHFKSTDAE
Human heterotrimeric replication protein A (RPA1, RPA2, RPA3), UniProt P35244, whole entry, chain 3 of 3: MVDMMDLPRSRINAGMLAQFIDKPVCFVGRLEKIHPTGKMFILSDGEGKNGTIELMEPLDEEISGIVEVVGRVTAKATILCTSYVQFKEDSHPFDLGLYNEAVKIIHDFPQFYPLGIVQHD

Target: T1, Human heterotrimeric replication protein A (RPA1, RPA2, RPA3) (human, UniProt P27694 1-616; P15927 1-270; P35244 1-121)
T1 construct: human RPA1 (RPA70) subunit of the heterotrimer; human RPA2 (RPA32) subunit of the heterotrimer; human RPA3 (RPA14) subunit of the heterotrimer; also called hRPA1-3; RPA1-3; source: E. coli, purified (Affi-gel Blue, hydroxylapatite, Mono-Q); copies: + +
Test: ELISA; 1 µg of 1st protein coated on a 96-well plate (1 h, 25 °C), blocked with 5% milk in PBS; 2nd protein added at increasing concentrations in blocking buffer (1 h, 25 °C); detected with anti-WASp antibody, OD450; RPA coated alone or after pre-incubation with 1 nM ssDNA
Details: both partners purified

B1: Recombinant human WT*WASp (Wiskott-Aldrich syndrome protein) (natural protein, UniProt P42768 1-502, looked up)
chain: MSGGPMGGRPGGRGAPAVQQNIPSTLLQDHENQRLFEMLGRKCLTLATAVVQLYLALPPGAEHWTKEHCGAVCFVKDNPQKSYFIRLYGLQAGRLLWEQELYSQLVYSTPTPFFHTFAGDDCQAGLNFADEDEAQAFRALVQEKIQKRNQRQSGDRRQLPPPPTPANEERRGGLPPLPLHPGGDQGGPPVGPLSLGLATVDIQNPDITSSRYRGLPAPGPSPADKKRSGKKKISKADIGAPSGFKHVSHVGWDPQNGFDVNNLDPDLRSLFSRAGISEAQLTDAETSKLIYDFIEDQGGLEAVRQEMRRQEPLPPPPPPSRGGNQLPRPPIVGGNKGRSGPLPPVPLGIAPPPPTPRGPPPPGRGGPPPPPPPATGRSGPLPPPPPGAGGPPMPPPPPPPPPPPSSGNGPAPPPLPPALVPAGGLAPGGGRGALLDQIRQGIQLNKTPGAPESSALQPPPQSSEGLVGALMHVMQKRSRAIHSSDEGEDQAGDEDEDDEWDD
notes: human WASp, codon-optimized WAS gene cloned into the NdeI-HindIII site of pET30a; also called wild-type WASp; native purified human WASp; source: E. coli DE3 (pET30a-WT*WASp), purified using Flag-tag; commercially produced by GenScript
binding result: binds
